What was measured:
Experiment in all cases: Kinase profiling panel
[1] = molecular target: IRAK4 (Homo sapiens, UniProt Q9NWZ3); format: biochemical; conditions: 10 μM inhibitor
[2] = molecular target: ERK8 (Homo sapiens, UniProt Q8TD08); format: biochemical; conditions: read-out: percentage of kinase activity compared with control
[3] = molecular target: JNK1 (Homo sapiens, UniProt P45983); format: biochemical; conditions: 10 μM inhibitor
[4] = molecular target: GSK3β (Homo sapiens, UniProt P49841); format: biochemical; conditions: read-out: percentage of kinase activity compared with control
[5] = molecular target: PIM2 (Homo sapiens, UniProt Q9P1W9); format: biochemical; conditions: read-out: percentage of kinase activity compared with control
[6] = molecular target: SGK1 (Homo sapiens, UniProt O00141); format: biochemical; conditions: read-out: percentage of kinase activity compared with control
[7] = molecular target: PKCζ (Homo sapiens, UniProt Q05513); format: biochemical; conditions: read-out: percentage of kinase activity compared with control
[8] = molecular target: SYK (Homo sapiens, UniProt P43405); format: biochemical
[9] = molecular target: NK2 (Homo sapiens, UniProt P45984); format: biochemical; conditions: 10 μM inhibitor
[10] = molecular target: IRR (Homo sapiens, UniProt P14616); format: biochemical; conditions: read-out: percentage of kinase activity compared with control
[11] = molecular target: CaMK1 (Homo sapiens, UniProt Q14012); format: biochemical; conditions: read-out: percentage of kinase activity compared with control
[12] = molecular target: PAK4 (Homo sapiens, UniProt O96013); format: biochemical; conditions: read-out: percentage of kinase activity compared with control
[13] = molecular target: MKK1 (Homo sapiens, UniProt Q02750); format: biochemical; conditions: read-out: percentage of kinase activity compared with control
[14] = molecular target: DYRK3 (Homo sapiens, UniProt O43781); format: biochemical; conditions: read-out: percentage of kinase activity compared with control
[15] = molecular target: MST4 (Homo sapiens, UniProt Q9P289); format: biochemical; conditions: read-out: percentage of kinase activity compared with control
[16] = molecular target: SmMLCK (Homo sapiens, UniProt Q15746); format: biochemical; conditions: read-out: percentage of kinase activity compared with control
[17] = molecular target: Src (Homo sapiens, UniProt P12931); conditions: read-out: percentage of kinase activity compared with control
[18] = molecular target: ROCK2 (Rattus norvegicus, UniProt Q62868); format: biochemical; conditions: read-out: percentage of kinase activity compared with control
[19] = molecular target: IGF-1R (Homo sapiens, UniProt P08069); format: biochemical; conditions: read-out: percentage of kinase activity compared with control
[20] = molecular target: p38β MAPK (Homo sapiens, UniProt Q15759); format: biochemical; conditions: read-out: percentage of kinase activity compared with control
[21] = molecular target: DYRK2 (Homo sapiens, UniProt Q92630); format: biochemical; conditions: read-out: percentage of kinase activity compared with control
[22] = molecular target: MNK1 (Homo sapiens, UniProt Q9BUB5); format: biochemical; conditions: read-out: percentage of kinase activity compared with control
[23] = molecular target: RSK2 (Homo sapiens, UniProt P51812); format: biochemical; conditions: read-out: percentage of kinase activity compared with control
[24] = molecular target: CHK1 (Homo sapiens, UniProt O14757); format: biochemical
[25] = molecular target: PKA (Homo sapiens, UniProt P17612); format: biochemical; conditions: read-out: percentage of kinase activity compared with control
[26] = molecular target: LRRK2[G2019S] (Homo sapiens, UniProt Q5S007, G2019S); format: biochemical; conditions: read-out: percentage of kinase activity compared with control
[27] = test system: VEGFR; format: biochemical
[28] = molecular target: PIM1 (Homo sapiens, UniProt P11309); format: biochemical; conditions: read-out: percentage of kinase activity compared with control
[29] = molecular target: p38α MAPK (Homo sapiens, UniProt Q16539); format: biochemical; conditions: 10 μM inhibitor
[30] = molecular target: MINK1 (Homo sapiens, UniProt Q8N4C8); format: biochemical; conditions: read-out: percentage of kinase activity compared with control
[31] = molecular target: PKBβ (Homo sapiens, UniProt P31751); format: biochemical; conditions: read-out: percentage of kinase activity compared with control
[32] = molecular target: MELK (Homo sapiens, UniProt Q14680); format: biochemical; conditions: read-out: percentage of kinase activity compared with control
[33] = molecular target: YES1 (Homo sapiens, UniProt P07947); format: biochemical; conditions: read-out: percentage of kinase activity compared with control
[34] = molecular target: IKKε (Homo sapiens, UniProt Q14164); format: biochemical; conditions: read-out: percentage of kinase activity compared with control
[35] = molecular target: Aurora B kinase (Homo sapiens, UniProt Q96GD4); format: biochemical; conditions: read-out: percentage of kinase activity compared with control
[36] = molecular target: p38δ MAPK (Homo sapiens, UniProt O15264); format: biochemical; conditions: read-out: percentage of kinase activity compared with control
[37] = molecular target: S6K1 (Homo sapiens, UniProt P23443); format: biochemical; conditions: read-out: percentage of kinase activity compared with control
[38] = molecular target: SRPK1 (Homo sapiens, UniProt Q96SB4); format: biochemical; conditions: read-out: percentage of kinase activity compared with control
[39] = molecular target: MST2 (Homo sapiens, UniProt Q13188); format: biochemical; conditions: read-out: percentage of kinase activity compared with control
[40] = molecular target: EPH-B3 (Homo sapiens, UniProt P54753); format: biochemical; conditions: read-out: percentage of kinase activity compared with control
[41] = molecular target: PKD1 (Homo sapiens, UniProt Q15139); format: biochemical; conditions: read-out: percentage of kinase activity compared with control
[42] = molecular target: IKKβ (Homo sapiens, UniProt O14920); format: biochemical; conditions: read-out: percentage of kinase activity compared with control
[43] = molecular target: MLK1 (Homo sapiens, UniProt P80192); format: biochemical; conditions: read-out: percentage of kinase activity compared with control
[44] = molecular target: RSK1 (Homo sapiens, UniProt Q15418); format: biochemical; conditions: read-out: percentage of kinase activity compared with control
[45] = molecular target: NUAK1 (Homo sapiens, UniProt O60285); format: biochemical; conditions: 10 μM inhibitor
[46] = molecular target: BTK (Homo sapiens, UniProt Q06187); format: biochemical; conditions: 10 μM inhibitor
[47] = molecular target: BRSK2 (Homo sapiens, UniProt Q8IWQ3); format: biochemical; conditions: read-out: percentage of kinase activity compared with control
[48] = molecular target: LRRK2 wild-type (Homo sapiens, UniProt Q5S007); format: biochemical; conditions: read-out: percentage of kinase activity compared with control
[49] = molecular target: PRK2 (Homo sapiens, UniProt Q16513); format: biochemical; conditions: read-out: percentage of kinase activity compared with control
[50] = molecular target: MNK2 (Homo sapiens, UniProt Q9HBH9); format: biochemical; conditions: read-out: percentage of kinase activity compared with control
[51] = molecular target: IR-HIS (Homo sapiens, UniProt P06213); format: biochemical; conditions: read-out: percentage of kinase activity compared with control
[52] = molecular target: CHK2 (Homo sapiens, UniProt O96017); format: biochemical; conditions: read-out: percentage of kinase activity compared with control
[53] = molecular target: PRAK (Homo sapiens, UniProt Q8IW41); format: biochemical; conditions: read-out: percentage of kinase activity compared with control
[54] = molecular target: PDK1 (Homo sapiens, UniProt O15530); format: biochemical; conditions: read-out: percentage of kinase activity compared with control
[55] = molecular target: GCK (Homo sapiens, UniProt Q12851); format: biochemical; conditions: read-out: percentage of kinase activity compared with control
[56] = molecular target: PHK (Homo sapiens, UniProt Q16816); format: biochemical; conditions: read-out: percentage of kinase activity compared with control
[57] = test system: AMPK; format: biochemical; conditions: 10 μM inhibitor
[58] = molecular target: CK1 (Homo sapiens, UniProt P48730); format: biochemical; conditions: read-out: percentage of kinase activity compared with control
[59] = molecular target: CaMKKβ (Homo sapiens, UniProt Q96RR4); format: biochemical; conditions: read-out: percentage of kinase activity compared with control
[60] = molecular target: TTK (Homo sapiens, UniProt P33981); format: biochemical; conditions: read-out: percentage of kinase activity compared with control
[61] = molecular target: PIM3 (Homo sapiens, UniProt Q86V86); format: biochemical; conditions: read-out: percentage of kinase activity compared with control
[62] = molecular target: TBK1 (Homo sapiens, UniProt Q9UHD2); format: biochemical; conditions: read-out: percentage of kinase activity compared with control
[63] = molecular target: MSK1 (Homo sapiens, UniProt O75582); format: biochemical; conditions: read-out: percentage of kinase activity compared with control
[64] = molecular target: LKB1 (Homo sapiens, UniProt Q15831); format: biochemical; conditions: read-out: percentage of kinase activity compared with control
[65] = molecular target: PAK5 (Homo sapiens, UniProt Q9P286); format: biochemical; conditions: read-out: percentage of kinase activity compared with control
[66] = molecular target: PKCα (Homo sapiens, UniProt P17252); format: biochemical; conditions: read-out: percentage of kinase activity compared with control

O=c1[nH]ccc2c(S(=O)(=O)N3CCCNCC3)cccc12 [HA-1100, hydroxyfasudil] was tested, and the “percentage of kinase activity compared with control” value (shortened to “percentage of kinase activity”) [1] was 87 ± 4%, the remaining activity at 10 µM [2] was 76 ± 1% and the “percentage of kinase activity” value [3] was 105 ± 9%. For the same compound, the remaining activity at 10 µM [4] was 91 ± 11%, the remaining activity at 10 µM [5] was 104 ± 1% and the remaining activity at 10 µM [6] was 55 ± 13%. The remaining activity at 10 µM [7] was 94 ± 8%, the “percentage of kinase activity” value [8] was 112 ± 11% and the “percentage of kinase activity” value [9] was 90 ± 5%. It also gave a remaining activity at 10 µM [10] of 89 ± 1%, a remaining activity at 10 µM [11] of 108 ± 14% and a remaining activity at 10 µM [12] of 104 ± 4%. It also gave a remaining activity at 10 µM [13] of 63 ± 3%, a remaining activity at 10 µM [14] of 99 ± 2% and a remaining activity at 10 µM [15] of 82 ± 2%. For the same compound, the remaining activity at 10 µM [16] was 66 ± 3%, the remaining activity at 10 µM [17] was 111 ± 2% and the remaining activity at 10 µM [18] was 7 ± 2%. It also gave a remaining activity at 10 µM [19] of 91 ± 9%, a remaining activity at 10 µM [20] of 90 ± 6% and a remaining activity at 10 µM [21] of 89 ± 1%. The remaining activity at 10 µM [22] was 76 ± 8%, the remaining activity at 10 µM [23] was 41 ± 6% and the “percentage of kinase activity” value ([24]; 10 μM inhibitor) was 87 ± 1%. The remaining activity at 10 µM [25] was 89 ± 10%, the remaining activity at 10 µM [26] was 26 ± 1% and the “percentage of kinase activity” value ([27]; 10 μM inhibitor) was 115 ± 1%. For the same compound, the remaining activity at 10 µM [28] was 90 ± 14%, the “percentage of kinase activity” value [29] was 98 ± 1% and the remaining activity at 10 µM [30] was 68 ± 21%. It also gave a remaining activity at 10 µM [31] of 100 ± 3%, a remaining activity at 10 µM [32] of 76 ± 2% and a remaining activity at 10 µM [33] of 111 ± 4%. For the same compound, the remaining activity at 10 µM [34] was 99 ± 2%, the remaining activity at 10 µM [35] was 59 ± 1% and the remaining activity at 10 µM [36] was 100 ± 4%. The remaining activity at 10 µM [37] was 11 ± 1%, the remaining activity at 10 µM [38] was 90 ± 12% and the remaining activity at 10 µM [39] was 44 ± 4%. The remaining activity at 10 µM [40] was 111 ± 2%, the remaining activity at 10 µM [41] was 60 ± 3% and the remaining activity at 10 µM [42] was 86 ± 6%. For the same compound, the remaining activity at 10 µM [43] was 75 ± 16%, the remaining activity at 10 µM [44] was 11 ± 15% and the “percentage of kinase activity” value [45] was 36 ± 11%. For the same compound, the “percentage of kinase activity” value [46] was 108 ± 20%, the remaining activity at 10 µM [47] was 65 ± 3% and the remaining activity at 10 µM [48] was 72 ± 11%. It also gave a remaining activity at 10 µM [49] of 12%, a remaining activity at 10 µM [50] of 77 ± 4% and a remaining activity at 10 µM [51] of 100 ± 4%. It also gave a remaining activity at 10 µM [52] of 89 ± 13%, a remaining activity at 10 µM [53] of 88 ± 16% and a remaining activity at 10 µM [54] of 112 ± 4%. For the same compound, the remaining activity at 10 µM [55] was 73 ± 7%, the remaining activity at 10 µM [56] was 89 ± 4% and the “percentage of kinase activity” value [57] was 72 ± 2%. It also gave a remaining activity at 10 µM [58] of 100%, a remaining activity at 10 µM [59] of 93 ± 3% and a remaining activity at 10 µM [60] of 82 ± 2%. It also gave a remaining activity at 10 µM [61] of 75 ± 1%, a remaining activity at 10 µM [62] of 98 ± 5% and a remaining activity at 10 µM [63] of 17%. It also gave a remaining activity at 10 µM [64] of 50%, a remaining activity at 10 µM [65] of 113 ± 7% and a remaining activity at 10 µM [66] of 64 ± 5%.

CCN(CC)CCNC(=O)c1c(C)[nH]c(/C=C2\C(=O)Nc3ccc(F)cc32)c1C [Sunitinib, sunitinib] was tested, and the “percentage of kinase activity” value ([24]; 1 μM inhibitor) was 33 ± 3%, the “percentage of kinase activity” value ([27]; 0.1 μM inhibitor) was 33 ± 0% and the “percentage of kinase activity” value ([27]; 1 μM inhibitor) was 9 ± 0%. For the same compound, the remaining activity at 1 µM [48] was 9%.

Source: publication PMC3759966 (The Biochemical journal, 2009)
